Data on 2 molecules can be found in ChEMBL document CHEMBL5614399, “Design and Assessment of First-Generation Heterobifunctional PPARα/STING Modulators” (ACS Med Chem Lett, 2024).

Structures are written as SMILES. The source made the active and inactive calls. No cut-off for these calls is given here.

Data set [1] relates to 661W. The experiment in a line: Cytoprotective activity against 4HNE-induced mouse 661W cells assessed as reduction in ROS level at 1 uM preincubated for 2 hrs followed by 4-HNE addition and measured after 24 hrs in presence of SN-011 by CM-H2DCFDA staining based fluorescence analysis. In kind it is functional, cell-based. The following applies: time 26.0 hrs.
The test system of data set [2] is 661W. Put plainly: Cytoprotective activity against 4HNE-induced mouse 661W cells assessed as reduction in ROS level at 0.5 uM preincubated for 2 hrs followed by 4-HNE addition and measured after 24 hrs in presence of SN-011 by CM-H2DCFDA staining based fluorescence analysis. Type of data set: functional, cell-based.
The nature of data set [3]: Cytotoxicity against human THP1-Lucia ISG cells assessed as reduction in cell viability at upto 50 uM by MTS method. Type of data set: toxicity, cell-based. Background: Tetrazolium dyes change colour on reduction, which living cells bring about.

With `O=C(O)c1cc(F)cc(NCc2ccc(-c3ccc(F)cc3)cc2)c1`, the outcome in the data set on 661W [1] and in the data set with 661W [2] was Active.

On to `O=C(O)c1cc(NCc2ccc(-c3ccc(F)cc3)cc2)ccc1O`, for which, in data set [3], the Activity entry was “Non-Toxic”.
